{
  "source": "paper PMC9440615",
  "about": "(Biochemical pharmacology, 2020)",
  "target": "T1, hPXR (Homo sapiens, UniProt O75469)",
  "T1 sequence (O75469 1-434)": "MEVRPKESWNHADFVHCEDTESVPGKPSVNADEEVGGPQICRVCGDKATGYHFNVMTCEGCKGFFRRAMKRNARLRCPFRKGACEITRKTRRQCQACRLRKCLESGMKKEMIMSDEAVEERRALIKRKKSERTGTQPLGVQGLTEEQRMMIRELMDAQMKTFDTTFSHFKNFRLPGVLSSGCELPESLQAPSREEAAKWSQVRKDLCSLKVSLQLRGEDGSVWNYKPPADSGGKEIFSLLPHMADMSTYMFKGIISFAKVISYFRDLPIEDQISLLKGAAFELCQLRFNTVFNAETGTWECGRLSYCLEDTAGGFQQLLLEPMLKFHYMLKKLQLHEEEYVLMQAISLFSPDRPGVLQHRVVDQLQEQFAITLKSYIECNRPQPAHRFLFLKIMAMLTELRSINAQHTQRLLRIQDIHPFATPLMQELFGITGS",
  "details": "follow-up (cherry-pick confirmation), hPXR-Luc HepG2, 24 h; relative to positive control RIF",
  "note": "Structures can show the parent of a compound that is named as a salt.",
  "data": [
    {"smiles": "CCN1C(=O)c2ccccc2C1Nc1ccc(OCCN2CCCCC2)cc1", "note": "(stereo not drawn) [Etomidoline]", "values": [
      {"measurement": "PXR Follow-up Efficacy", "value": "142 ± 19.4", "unit": "%"}
    ]},
    {"smiles": "Cc1cccc(N(C)C(=S)Oc2ccc3c(c2)CCC3)c1", "note": "[Tolindate]", "values": [
      {"measurement": "PXR Follow-up Efficacy", "value": "113 ± 7.13", "unit": "%"}
    ]},
    {"smiles": "CC(C)C[C@H](NC(=O)[C@H](CCc1ccccc1)NC(=O)CN1CCOCC1)C(=O)N[C@@H](Cc1ccccc1)C(=O)N[C@@H](CC(C)C)C(=O)[C@@]1(C)CO1", "note": "[Carfilzomib]", "values": [
      {"measurement": "PXR Follow-up Efficacy", "value": "108 ± 23.9", "unit": "%"}
    ]},
    {"smiles": "Cc1oc2c(NC(=O)c3c(Cl)cccc3Cl)cccc2c1C(C)(C)O", "note": "[FR167356]", "values": [
      {"measurement": "PXR Follow-up Efficacy", "value": "145 ± 9.86", "unit": "%"}
    ]},
    {"smiles": "O[C@@H](COc1cccc2ncccc12)CN1CCN([C@@H]2c3ccccc3[C@@H]3[C@H](c4ccccc42)C3(F)F)CC1", "note": "[Zosuquidar trihydrochloride]", "values": [
      {"measurement": "PXR Follow-up Efficacy", "value": "106 ± 9.09", "unit": "%"}
    ]},
    {"smiles": "CCOc1cc(N)c(Cl)cc1C(=O)NCC1CN(Cc2ccc(F)cc2)CCO1", "note": "(stereo not drawn) [Mosapride citrate]", "values": [
      {"measurement": "PXR Follow-up Efficacy", "value": "138 ± 9.00", "unit": "%"}
    ]}
  ]
}
